Data: publication PMC10945505

Molecular target: FZD7 CRD (Homo sapiens)
Assay: BLI

Substance: F-FGF21ΔNΔC (from UniProt Q9NSA1 46-189)
- Kd: 53.6 nM

Substance: F-FGF21ΔC (from UniProt Q9NSA1 29-189)
- Kd: 63.7 nM
